Legend:
Format in all cases: binding
[1] = biological target: T1, BRD4 BD1 WT (Homo sapiens, UniProt O60885); experiment: competitive AlphaLISA; conditions: separated enantiomers test; total compound concentration
[2] = biological target: T2, BRD4 BD1 L/V (Homo sapiens, UniProt O60885, L94V); experiment: competitive AlphaLISA; conditions: total compound concentration; for ΔpIC50 BRD4 BD1: L/V minus WT
[3] = biological target: T1, BRD4 BD1 WT; experiment: ITC; conditions: read-out: Kd BRD4 BD1 WT; ITC of separated enantiomers; total compound concentration
[4] = biological target: T2, BRD4 BD1 L/V; experiment: ITC; conditions: read-out: Kd BRD4 BD1 L/V; ITC of separated enantiomers and racemates; total compound concentration

Structure (SMILES): CC[C@H](C(=O)OC)[C@H]1N=C(c2ccc(Cl)cc2)c2ccc(OC)cc2-n2c(C)nnc21
- pIC50 BRD4 BD1 WT [1]: 4.6
- ΔpIC50 BRD4 BD1 [2]: 0.4
- pIC50 BRD4 BD1 L/V ([2]; separated enantiomers test): 5.0
- Kd [3]: > 60 µM
- Kd [4]: > 60 µM

Structure (SMILES): COC(=O)[C@@H](C)[C@H]1N=C(c2ccc(Cl)cc2)c2ccc(OC)cc2-n2c(C)nnc21
- pIC50 BRD4 BD1 WT [1]: 4.2
- ΔpIC50 BRD4 BD1 [2]: 1.4
- Kd [3]: > 60 µM
- Kd [4]: > 60 µM
